Results published in PubChem BioAssay (NCI).
Only a part is listed here, and it is no random draw. Some structures show a salt or complex split into parts, the way the source records it. Active and inactive are the calls of the source. No stated cut-off is given here; in the data, active means growth inhibition above about 70%; inactive means the rest.

What was measured:
[1] = NCI Yeast Anticancer Drug Screen. Data for the rad50 strain (AID 155);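 further: 0% = growth of vehicle-only cultures of the same strain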; details: S. cerevisiae rad50 strain growth inhibition; at 50.0 µM; hits give high values
[2] = NCI Yeast Anticancer Drug Screen. Data for the mec2-1 strain (AID 157); details: S. cerevisiae mec2-1 strain, at 50.0 µM, hits give high values
[3] = NCI Yeast Anticancer Drug Screen. Data for the sgs1 mgt1 strain (AID 161);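 further: 0% = growth of cultures given vehicle only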; details: S. cerevisiae sgs1 mgt1 strain, at 50.0 µM, hits give high values
[4] = NCI Yeast Anticancer Drug Screen. Data for the cln2 rad14 strain (AID 165);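 further: 0% = growth equal to vehicle treated cultures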; details: S. cerevisiae cln2 rad14 strain, at 50.0 µM, hits give high values
[5] = NCI Yeast Anticancer Drug Screen. Data for the bub3 strain (AID 167); details: S. cerevisiae bub3 mutant strain, at 50.0 µM, hits give high values
[6] = NCI Yeast Anticancer Drug Screen. Data for the mlh1 rad18 strain (AID 175); details: S. cerevisiae mlh1 rad18 strain growth inhibition; at 50.0 µM; hits give high values

Structure (SMILES)	growth inhibition [1]	growth inhibition [2]	growth inhibition [3]	growth inhibition [4]	growth inhibition [5]	growth inhibition [6]
CC(C)N1C(C)C1C.O=[N+]([O-])c1cc([N+](=O)[O-])c(S(=O)(=O)O)c([N+](=O)[O-])c1	inactive: 39.9%	inactive: 19.1%	inactive: 58.8%	inactive: 39.2%	inactive: 28.4%	inactive: 18.7%
CCN(CCO)CCCO.O=[N+]([O-])c1cc([N+](=O)[O-])c(O)c([N+](=O)[O-])c1	inactive: 24.4%	inactive: 3.8%	inactive: 16.4%	inactive: 7.25%	inactive: 2.1%	inactive: 16.9%
Cc1cc(C(=O)O)c(CN)c(=O)[nH]1.O=[N+]([O-])c1cc([N+](=O)[O-])c(O)c([N+](=O)[O-])c1	inactive: 32.6%	inactive: -9.9%	inactive: 29.5%	inactive: -36.4%	inactive: -0.05%	inactive: 2.7%
NCc1ccccn1.O=[N+]([O-])c1cc([N+](=O)[O-])c(O)c([N+](=O)[O-])c1	inactive: 11.6%	inactive: 19.9%	inactive: 9.6%	inactive: -7.5%	inactive: 28.4%	inactive: 19.2%
COC(=O)/C(=C\c1ccccc1)CN1CCCCC1C.O=[N+]([O-])c1cc([N+](=O)[O-])c(O)c([N+](=O)[O-])c1 (stereo not given)	inactive: 27.4%	inactive: -5.3%	inactive: 25.9%	inactive: -20.9%	inactive: 1%	inactive: 0.2%
CN(C)CCOC(=O)C(O)(c1ccccc1)C1CCCCC1 (stereo not given)	inactive: -5.3%	inactive: 9.1%	inactive: 9.95%	inactive: 21.4%	inactive: 5%	inactive: 1.15%
COC(=O)C(O)(c1ccccc1)c1ccccc1	inactive: -0.45%	inactive: -6.65%	inactive: -10.1%	inactive: -19.8%	inactive: 11.9%	inactive: -6.5%
CCCCCc1ccccn1.O=[N+]([O-])c1cc([N+](=O)[O-])c(O)c([N+](=O)[O-])c1	inactive: -0.2%	inactive: 0.8%	inactive: -12.4%	inactive: -10.4%	inactive: -2.25%	inactive: -13.9%
O=[N+]([O-])c1cc([N+](=O)[O-])c(O)c([N+](=O)[O-])c1.c1ccc(-c2cc3ccccn3c2)cc1	inactive: 3.65%	inactive: 4.75%	inactive: 21.9%	inactive: 5.05%	inactive: 18.1%	inactive: 19%
O=[N+]([O-])c1cc([N+](=O)[O-])c(-c2nc(Cl)c3c([N+](=O)[O-])cc([N+](=O)[O-])cc3[n+]2[O-])c([N+](=O)[O-])c1	active: 87%	active: 88.5%	active: 87.5%	active: 86%	active: 84%	active: 85.2%
N=P(c1ccccc1)(c1ccccc1)c1ccccc1.O=[N+]([O-])c1cc([N+](=O)[O-])c(O)c([N+](=O)[O-])c1	inactive: 12.4%	inactive: -1.95%	inactive: 3.15%	inactive: -6.95%	inactive: -3.25%	inactive: 12%
CC(C)([N+](=O)[O-])C(C)([N+](=O)[O-])[N+](=O)[O-]	inactive: 39.1%	inactive: -6.8%	inactive: 37.2%	inactive: 13.2%	inactive: -1.15%	inactive: 40%
N=P(c1ccccc1)(c1ccccc1)c1ccccc1.[C-]#N.[C-]#N.[C-]#N.[C-]#N.[C-]#N.[C-]#N.[Fe+6]	inactive: 5.5%	inactive: -7.3%	inactive: -9.3%	inactive: -11.3%	inactive: 1.55%	inactive: 1.7%
CCN(CC)CCCN(C(C)=O)c1ccccc1[N+](=O)[O-].O=[N+]([O-])c1cc([N+](=O)[O-])c(O)c([N+](=O)[O-])c1	inactive: 2.8%	inactive: -2.95%	inactive: -5.3%	inactive: -10.3%	inactive: 5.85%	inactive: 8.05%
CN(C)Cc1ccccc1.O=[N+]([O-])c1cc([N+](=O)[O-])c(O)c([N+](=O)[O-])c1	inactive: 17.2%	inactive: -3.55%	inactive: 2.35%	inactive: 6.25%	inactive: 17.6%	inactive: -9.3%
COc1ccc2nccc(C)c2c1.O=[N+]([O-])c1cc([N+](=O)[O-])c(O)c([N+](=O)[O-])c1	inactive: 33.7%	inactive: 12.4%	inactive: 12.6%	inactive: 4.05%	inactive: -1.9%	inactive: 16.6%
CCN(CC)CCOC(=O)C(O)(c1ccccc1)c1ccc(C)cc1 (stereo not given)	inactive: 0.15%	inactive: 4.9%	inactive: -5.7%	inactive: -17%	inactive: -0.85%	inactive: 4.55%
COP(C)(=O)OC.COP(C)(=O)OC.COP(C)(=O)OC.COP(C)(=O)OC.COP(C)(=O)OC.COP(C)(=O)OC.[Al+3].[O-][Cl+3]([O-])([O-])O	inactive: 4.45%	inactive: 9.25%	inactive: 6.65%	inactive: -26.6%	inactive: -3.15%	inactive: 26%
Nc1cc([N+](=O)[O-])cc([N+](=O)[O-])c1O	inactive: 3.65%	inactive: 33.1%	inactive: 5.5%	inactive: -13.6%	inactive: 4.1%	inactive: 23.4%
CCCC(C[S+](C)C)[S+](C)C.O=[N+]([O-])c1cc([N+](=O)[O-])c(S(=O)(=O)[O-])c([N+](=O)[O-])c1	inactive: 37.2%	inactive: 38.1%	inactive: 63.9%	inactive: 20.1%	inactive: 26.9%	inactive: 65%
CCCCCCC[CH2][Sn]([CH2]CCCCCCC)([O]c1c([N+](=O)[O-])cc([N+](=O)[O-])cc1[N+](=O)[O-])[O]c1c([N+](=O)[O-])cc([N+](=O)[O-])cc1[N+](=O)[O-]	inactive: 13.2%	inactive: -21.1%	inactive: -5.6%	inactive: 1.6%	inactive: -17.5%	inactive: 9.05%
NC(=O)N/N=C(\N)N[N+](=O)[O-]	inactive: 0.55%	inactive: -7.95%	inactive: -2.85%	inactive: -41.5%	inactive: -6.65%	inactive: -3.35%
C1CN1.Cc1c[nH]c(=O)[nH]c1=O.NC(CC(=O)O)C(=O)O	inactive: -5.05%	inactive: -4.4%		inactive: 3.8%	inactive: 1.8%	inactive: 16.1%
Cc1cc2ccccc2c2c1ccc1ccccc12.O=C1c2cc([N+](=O)[O-])ccc2-c2c1cc([N+](=O)[O-])cc2[N+](=O)[O-]	inactive: 35.4%	inactive: 15.4%	inactive: 30.1%	inactive: -8.55%	inactive: 23.5%	inactive: 65.1%
ClCCCc1cccnc1.O=[N+]([O-])c1cc([N+](=O)[O-])c(O)c([N+](=O)[O-])c1	inactive: -40.5%	inactive: -2.4%	inactive: 18.4%	inactive: 22.9%	inactive: 2.8%	inactive: 9.45%
NCCc1ccccn1.O=[N+]([O-])c1cc([N+](=O)[O-])c(O)c([N+](=O)[O-])c1	inactive: 8.7%	inactive: -8.45%	inactive: 10.4%	inactive: 4.4%	inactive: -12.2%	inactive: -6.1%
